Experimental data: paper PMC3893891 (Journal of biomolecular screening, 2012)

target: T1, Eya2 ED (Homo sapiens, UniProt O00167); settings: OMFP substrate
T1 sequence (O00167 253-538): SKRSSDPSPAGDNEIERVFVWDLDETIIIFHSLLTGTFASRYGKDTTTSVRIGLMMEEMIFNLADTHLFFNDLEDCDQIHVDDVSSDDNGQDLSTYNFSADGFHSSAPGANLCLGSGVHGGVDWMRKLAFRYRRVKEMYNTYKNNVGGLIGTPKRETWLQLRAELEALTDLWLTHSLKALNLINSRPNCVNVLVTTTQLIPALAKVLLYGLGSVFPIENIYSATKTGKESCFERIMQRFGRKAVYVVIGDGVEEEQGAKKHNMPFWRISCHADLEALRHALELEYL

SMILES | inhibition of Eya2 ED phosphatase activity (in words)
c1cnc2c(c1)ccc1cccnc12 [1,10-phenanthroline] | inactive
O=C(O)CN(CCN(CC(=O)O)CC(=O)O)CC(=O)O [EDTA] | inhibit
N[C@@H](Cc1ccccc1)C(=O)O [L-phenylalanine] | inactive
